## Yeast mating assay 1: variants of the scFv Ab-14

Values reported by Engelhart et al. 2022, doi:10.1038/s41597-022-01779-4 (FLAb copy).

Binding partner: SARS-CoV-2 spike HR2 peptide, sequence PDVDLGDISGINAS.

Parent scFv Ab-14: VH joined to VL by a (GGGGS)3 linker. Changes lie in the light chain CDRs alone.
VH: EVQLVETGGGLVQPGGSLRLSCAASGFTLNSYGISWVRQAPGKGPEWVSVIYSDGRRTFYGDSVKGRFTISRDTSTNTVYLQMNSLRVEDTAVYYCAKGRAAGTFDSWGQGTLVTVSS
VL: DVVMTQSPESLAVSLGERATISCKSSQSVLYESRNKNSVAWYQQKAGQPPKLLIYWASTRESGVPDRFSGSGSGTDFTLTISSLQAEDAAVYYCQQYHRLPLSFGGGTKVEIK

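Variants in AAYL50 differ from the parent at up to three CDR positions; double and triple changes were sampled at random. The assay is AlphaSeq: two haploid yeast populations carry antibody and antigen on their surface. The frequency of each diploid, read from paired DNA barcodes, reflects how well the two displayed proteins bind. Scores were corrected for input abundance and mapped to Kd with protein pairs of known affinity run in the same pool. Mating was done three times.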

Substitutions are numbered in sequence along the VL above, starting at 1 (not Kabat). Scale: log10 of Kd in nM, estimated from mating counts; low values are strong binders. The mean shown is taken over the replicates in which the pair was detected. A pair that was not seen in that replicate is written "ND"; this usually means weak binding, but a binder can also be missed. In this assay the parent's reference entry averaged 0.65; its copy inside this library read 1.68. Empty control strains, which show no peptide, gave a signal in 18% of pairings with library AAYL50; the median was 4.19 and 95% of these signals were weaker than 2.99. No background was subtracted.

changes	log10 Kd, replicates	mean, log10 nM
N35K/A57F/H98G	ND / ND / ND	ND
Q27F/S28F/R60D	ND / ND / ND	ND
S28N/N35F/S103Y	1.74 / 1.78 / 1.40	1.64
L30W/V39I/A57V	1.69 / 1.49 / 1.52	1.57
Q27D/E32A/R99Y	ND / 4.21 / 4.71	4.46
N37I/R60V/R99V	ND / ND / 4.56	4.56
S33H/A40Y/S62A	ND / ND / ND	ND
V29T/L30E/L100V	0.21 / 0.60 / 0.36	0.39
V39C/P101R/S103H	ND / 4.13 / 6.03	5.08
V29P/S33D/Y97C	ND / ND / ND	ND
S38A/H98C/S103H	1.04 / 1.32 / 1.08	1.15
W56S/H98D/R99I	0.45 / 0.71 / 0.71	0.62
E61Y/Q96W/L100T	ND / 5.36 / ND	5.36
S62T/L100T/P101F	ND / ND / 4.48	4.48
L30M/R34P/S38H	1.79 / 1.80 / 2.29	1.96
L30N/V39E/S62A	4.19 / 5.35 / 6.06	5.20
S58D/R99Q/P101E	ND / 4.54 / 4.56	4.55
S58G/R99F/L102G	4.00 / ND / ND	4.00
S33A/R60Y/R99Y	6.12 / ND / 4.30	5.21
K36A/V39E/A57I	ND / ND / 5.45	5.45
S26T/L30G/H98W	0.72 / 0.83 / 0.98	0.84
V29W/N37V/S58G	1.98 / 1.99 / 2.26	2.08
T59V/Q95T/L100M	ND / ND / ND	ND
W56C/A57K	2.69 / 2.79 / 3.46	2.98
Q95S/R99H/L102N	3.54 / 3.13 / ND	3.33
S33K/Q95V	ND / ND / ND	ND
K24Q/L30F/N37R	2.66 / 2.41 / 2.65	2.57
E32F/W56A/Q96M	0.63 / 0.84 / 0.76	0.75
W56Y/Q96G/S103D	ND / ND / ND	ND
R34Y/L100Q/S103A	1.39 / 1.19 / 1.16	1.25
Y31W/A57L/S58L	ND / ND / ND	ND
S25M/S26L/R99C	2.16 / 2.28 / 2.03	2.15
V29W/E32H/S58M	ND / ND / 5.49	5.49
Y31L/T59N/S103G	2.19 / 1.87 / 1.88	1.98
S25A/E32K/S103K	2.93 / 2.65 / 2.85	2.81
E32R/N37V/T59S	ND / 3.59 / 4.91	4.25
N35I/S58W/Q95M	ND / ND / ND	ND
E32R/R34C/N35S	2.66 / 2.47 / 3.24	2.79
S25L/Y97P/L102P	-0.43 / -0.04 / -0.27	-0.25
Q27S/V29T/T59I	0.55 / 0.93 / 0.80	0.76
E32F/P101I/L102P	2.63 / 1.75 / 1.90	2.09
S25I/N35E	3.90 / 5.12 / 3.63	4.22
Q27H/S58T/L102P	ND / ND / ND	ND
Q27E/A57N/S62R	3.30 / 2.81 / 2.90	3.00
A40E/Q95A/Y97F	ND / ND / ND	ND
S33H/S62D/L102T	ND / 3.55 / ND	3.55
Y31R/A57L/Y97V	ND / ND / ND	ND
Y31R/E32H/V39P	3.09 / ND / ND	3.09
V29D/T59E/P101S	0.92 / 1.11 / 1.10	1.04
K36P/V39S/H98P	ND / ND / ND	ND

The closing 3 entries, repeated:

{"changes": "Y31R/E32H/V39P", "log10 Kd, replicates": "3.09 / ND / ND", "mean, log10 nM": "3.09"}
{"changes": "V29D/T59E/P101S", "log10 Kd, replicates": "0.92 / 1.11 / 1.10", "mean, log10 nM": "1.04"}
{"changes": "K36P/V39S/H98P", "log10 Kd, replicates": "ND / ND / ND", "mean, log10 nM": "ND"}